Columns and labels:
Format in all cases: cell-based, human
[1] = tested on: JIMT-1 cells (HER2 inhibitor-resistant cell line); assay: Expression of HER2 inhibitor resistance-associated genes after herceptin treatment (real-time RT-PCR)
[2] = tested on: SKBR3 cells (HER2 inhibitor-sensitive cell line); assay: as above
[3] = tested on: HER2 protein in SKBR3 cells; assay: HER2 protein expression upon herceptin treatment (western blot); conditions: SKBR3, 10 μg/ml herceptin, 4 days, FIG. 13
Experimental: Specifically, the used human SKBR3 and JIMT-1 cells were provided from a public institution, American Type Culture Collection (ATCC). The SKBR3 and JIMT-1 human breast cancer cell lines were used within 6 months after resuscitation. SKBR3 cells were cultured in McCoy's 5A medium (Sigma-aldrich, USA), and JIMT-1 cells were cultured in DMEM medium (Hyclone, Thermo Fisher, USA) under the culture condition of 37° C., 5% carbon dioxide, and 10% of introduced FBS (Hyclone). Then, 2.5×10^5 number of cells were seeded and cultured under 70-80% of normoxic atmosphere. Thereafter, each of two cell line was respectively cultured under 10 μg/ml herceptin-treated and herceptin-untreated states for 4 days.
Also, during the culturing process, an amount of HER2 expression was evaluated at each day. […] An expression degree was measured by using imaging experiment software, Image Lab software (Bio-Rad Co.), and the result was shown in FIG. 13 below. β-actin was used to check whether the procedure and analysis were appropriately performed by the specific method as in the prior art document [Antitumor agent PX-12 et al., (2011) Cancer Chemother Pharmacol, 68:405-413] by using 2(-delta-delta C(T)) method as in the prior art document [Analyzing real-time PCR data et al., (2008) Nature Protocols, 3:1101-1108].

[4] = tested on: JIMT-1 cells with knocked-down HER2 inhibitor resistance-associated gene; assay: Cell viability after siRNA knock-down of a resistance-associated gene and herceptin treatment; conditions: JIMT-1, siRNA 50 nM 48 hours, then 10 μg/ml herceptin 48 hours, FIG. 6
Experimental: Firstly, 4,000 number of SKBR3 cells and 2,000 number of JIMT-1 cells were plated on a 384-well plate (Greiner Co., Germany). Then, cells were plated triplicate, and 6 images were taken for each well. siRNA for knock-down of a gene associated with HER2 inhibitor resistance was purchased from Thermo Scientific, Co., and prepared such that final concentration became 50 nM. 0.5 μl of DharmaFECT1 was used for each well. […] A nucleus was stained with Draq5 (Cell Signaling Technology Co.) to count surviving cells. Opera high content screening system, (OPERA, PerkinElmer Co.) was used for the imaging and cell counting. In addition, for siRNA data analysis, PRISM (version 5) software was used.

[5] = JIMT-1, 10 μg/ml herceptin, 24 hours, FIG. 4
[6] = JIMT-1, 10 μg/ml herceptin, 48 hours, FIG. 5
[7] = SKBR3, 10 μg/ml herceptin, 24 hours, FIG. 4

How did the “amount of expression of gene ARHGEF12 increased” value [1, 5] turn out when trastuzumab [herceptin] was run?
Its value is “about 65%”.

What about the “amount of expression of gene EGF increased” value [1, 5] of the same substance?
The value was “about 37%”.

What about the “expression amounts of 25 genes associated with herceptin resistance” value (from here on “expression amounts”) [1, 5] of the same substance?
Its value is “increased amounts of expression of most genes”.

What about the “amount of expression of gene ENAH increased” value [1, 6] of the same substance?
Its value is “about 51%”.

What about the “expression amount of gene TJP2 increased” value [1, 6] of the same substance?
The value was “about 35%”.

And the “expression amounts” value [1, 6]?
Its value is “remarkably increased amounts of expression of almost genes”.

What about the “expression amount of TJP2 gene at 48 hours increased with respect to expression amount after 24 hours” value ([1]; JIMT-1, herceptin treatment, 48 hours versus 24 hours) of the same substance?
Its value is “about 86%”.

What about the “regulation of TJP2 gene expression” value ([1]; JIMT-1, herceptin, 24 hours, FIG. 4) of the same substance?
Its value is “downregulated”.

And the “expression amount of gene ICOSLG increased” value ([1]; JIMT-1, herceptin, 48 hours, FIG. 5)?
Its value is “about 194%”.

What about the “amount of expression of gene ATF4 reduced” value [2, 7] of the same substance?
The value was “about 33%”.

What about the “amount of expression of gene CHEK2 reduced” value [2, 7] of the same substance?
Its value is “about 32%”.

What about the “expression amounts” value [2, 7] of the same substance?
Its value is “reduced amounts of expression of most genes”.

What about the “expression amounts” value ([2]; SKBR3, 10 μg/ml herceptin, 48 hours, FIG. 5) of the same substance?
The value was “remarkably reduced amounts of expression of almost genes”.

And the “expression amount of ICOSLG gene at 48 hours reduced with respect to expression amount at 24 hours” value ([2]; SKBR3, herceptin treatment, 48 hours versus 24 hours)?
Its value is “about 64%”.

And the “regulation of ICOSLG gene expression” value ([2]; SKBR3, herceptin, 24 hours, FIG. 4)?
Its value is “upregulated”.

And the “change in HER2 expression” value [3]?
The value was “almost no change”.

What about the “cell viability after gene knock-down and herceptin treatment” value [4] of the same substance?
The value was “reduced”.
